{
  "source": "paper PMC12445440",
  "about": "“A Pyrido‐Quinoxaline Derivative That Downregulates Reticulon 3 Protein Exhibits Potent Antiviral Activity Against Zika Virus” (Journal of Medical Virology, 2025)",
  "tested_on": "ZIKV^Br",
  "test": "Virus yield reduction assay, ZIKV^Br on Huh-7 cells",
  "format": "cell-based, Zika virus",
  "conditions": "viral yield reduction",
  "data": [
    {"smiles": "NC(=O)c1ncn([C@@H]2O[C@H](CO)[C@@H](O)[C@H]2O)n1", "note": "[RBV, 1‐(b‐D‐ribofuranosyl)‐1H‐1,2,4‐triazole‐3‐carboxamide, reference compound]", "values": [
      {"measurement": "Activity against ZIKV^Br at nontoxic concentrations", "value": "did not seem to be active"}
    ]}
  ]
}
